From ChEMBL document CHEMBL1130280, “2-(1-Naphthyloxy)ethylamines with enhanced affinity for human 5-HT1D beta (h5-HT1B) serotonin receptors” (J Med Chem, 1997) come the findings set out here.

Chains of the proteins cited; added tags and fusions are not shown.
UniProt P28222, whole entry: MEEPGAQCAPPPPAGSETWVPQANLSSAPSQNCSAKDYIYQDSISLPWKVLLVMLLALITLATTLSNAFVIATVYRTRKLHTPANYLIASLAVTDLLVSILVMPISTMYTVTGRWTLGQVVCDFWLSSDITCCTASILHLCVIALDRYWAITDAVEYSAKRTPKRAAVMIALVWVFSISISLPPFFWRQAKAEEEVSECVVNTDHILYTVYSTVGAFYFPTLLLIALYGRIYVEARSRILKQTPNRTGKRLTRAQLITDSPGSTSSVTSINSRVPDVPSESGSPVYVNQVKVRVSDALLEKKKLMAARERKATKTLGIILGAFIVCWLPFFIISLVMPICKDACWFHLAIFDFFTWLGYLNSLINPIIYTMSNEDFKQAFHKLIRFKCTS

The pKi is −log10 of the Ki, conventionally taken in molar units.

For this assay, the target named is 5-hydroxytryptamine receptor 1B (Homo sapiens, UniProt P28222). The assay is described as follows: Agonist activity to the human recombinant 5-hydroxytryptamine 1B receptor. It counts as functional. In short, it runs like this: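 CHO Pro 5 cells stably transfected with human recombinant 5-HT1Dβ receptors. Agonism was read as inhibition of cAMP production stimulated by 10 μM forskolin with 0.5 mM IBMX. Compound was added to the culture medium for 30 min at 37 °C. The reaction was stopped with cold ethanolic 5 mM EDTA (2:1 v/v), and extracted cAMP was quantified by enzyme immunoassay, with serotonin as the reference agonist.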

pKi: −log10 of the molar value.

For `CC(C)NCC(O)COc1cccc2ccccc12` (racemic) [PROPRANOLOL], the pKi is less than 5.00.

On to `CC(C)NC[C@H](O)COc1cccc2ccccc12` [LEVOPROPRANOLOL], for which the pKi is 5.39.
